The values below come from patent US8741916B2, “1,3,8-trisubstituted-1,3,8-triaza-spiro[4.5]decan-4-one derivatives as ligands of the ORL-1 receptor” (dated 2014).

Assay [1] addresses recombinant human nociceptin receptor (ORL-1) (Homo sapiens, UniProt P41146). Nature of the assay: Nociceptin receptor binding assay ([3H]-nociceptin, HEK293 cell membranes). Conditions: read-out: ORL1 Ki, mean where tested more than once.
The next assay deals with Mu opioid receptor (Rattus norvegicus, UniProt P33535). Nature of the assay: Rat brain mu opioid receptor binding ([3H]DAMGO). The following applies: rat forebrain membranes, mean where tested more than once; for Ki: read-out: Mu Ki; for Mu % Inh @ 1 μM: 1 μM test compound.
The target in another assay is Delta Opioid Receptor (Rattus norvegicus, UniProt P33533). The assay can be described thus: Rat brain delta opioid receptor binding ([3H]Naltrindole). The following applies: rat forebrain membranes, mean where tested more than once; for Ki: read-out: Delta Ki; for Delta % Inh @ 1 μM: 1 μM test compound.
For another assay, the target named is kappa opioid receptor (Cavia porcellus, UniProt P41144). The assay can be described thus: Kappa (KOP) receptor binding ([3H]U-69593, cerebellum membrane homogenates). The following applies: read-out: Kappa Ki; guinea pig cerebellum membranes, 0.7 nM [3H]U-69593.

Molecules are shown by their SMILES.

Consider `O=C1N(CCOC2CCCCO2)CN(c2ccc(F)cc2)C12CCN(C1Cc3cccc4cccc1c34)CC2` (stereo not shown), for which the Ki in assay [1] came out at 0.28 nM.

As for `O=C1N(CCCn2cc(-c3cccc(F)c3)nn2)CN(c2ccc(F)cc2)C12CCN([C@@H]1Cc3cccc4cccc1c34)CC2`, the Ki on Mu opioid receptor came out at 38.5 nM; at Delta Opioid Receptor, 173 nM; in assay [1], 0.38 nM; at kappa opioid receptor, 94 nM.

Regarding `O=C1N(CCCn2cc(-c3cccc(F)c3)nn2)CN(c2ccc(F)cc2)C12CCN([C@H]1Cc3cccc4cccc1c34)CC2`, the Ki in assay [1] came out at 1.37 nM.

As to `[N-]=[N+]=NCCCN1CN(c2ccc(F)cc2)C2(CCN([C@H]3Cc4cccc5cccc3c45)CC2)C1=O`, in assay [1], the Ki was 1.2 nM.

With `C#CCCN1CN(c2ccc(F)cc2)C2(CCN(C3Cc4cccc5cccc3c45)CC2)C1=O` (stereo not shown), the “Mu % Inh @ 1 μM” value at Mu opioid receptor worked out at 94%. The “Delta % Inh @ 1 μM” value on Delta Opioid Receptor is recorded as 39%. Also, the Ki in assay [1] was 1.54 nM.

Take `O=C1N(CCn2cc(-c3cccnc3)nn2)CN(c2ccc(F)cc2)C12CCN([C@@H]1Cc3cccc4cccc1c34)CC2`: the Ki on Mu opioid receptor came out at 13.7 nM; in assay [1] it was 0.8 nM.

On to `O=C1N(CCn2cc(-c3cccnc3)nn2)CN(c2ccc(F)cc2)C12CCN([C@H]1Cc3cccc4cccc1c34)CC2`, for which, in assay [1], the Ki worked out at 3.36 nM.

In the case of `[N-]=[N+]=NCCN1CN(c2ccc(F)cc2)C2(CCN([C@H]3Cc4cccc5cccc3c45)CC2)C1=O`, the Ki in assay [1] stood at 0.98 nM.

On to `O=C1N(CCCOC2CCCCO2)CN(c2ccc(F)cc2)C12CCN(C1Cc3cccc4cccc1c34)CC2` (stereo not shown), for which, in assay [1], the Ki was 1.01 nM.

Regarding `CC(=O)OCCN1CN(c2ccc(F)cc2)C2(CCN(C3Cc4cccc5cccc3c45)CC2)C1=O` (stereo not shown), the Ki in assay [1] was determined as 0.3 nM.

Turning to `O=C1N(CCc2cn(Cc3ccccc3)nn2)CN(c2ccc(F)cc2)C12CCN([C@H]1Cc3cccc4cccc1c34)CC2`, the “Mu % Inh @ 1 μM” value at Mu opioid receptor is 95%. Also, the results for the Ki (at Mu opioid receptor; in assay [1]) were 46 nM and 4 nM, respectively. Further, the “Delta % Inh @ 1 μM” value on Delta Opioid Receptor came out at 20%.

In the case of `[N-]=[N+]=NCCCN1CN(c2ccc(F)cc2)C2(CCN([C@@H]3Cc4cccc5cccc3c45)CC2)C1=O`, in assay [1], the Ki worked out at 0.23 nM.

For the compound `CNCc1cn(CCCN2CN(c3ccc(F)cc3)C3(CCN([C@@H]4Cc5cccc6cccc4c56)CC3)C2=O)nn1`, the values for the Ki (on Mu opioid receptor; in assay [1]) were 18 nM and 0.21 nM, respectively.

On to `[N-]=[N+]=NCCN1CN(c2ccc(F)cc2)C2(CCN([C@@H]3Cc4cccc5cccc3c45)CC2)C1=O`, for which the Ki at Mu opioid receptor was determined as 15.6 nM; in assay [1] it was 0.33 nM.

In the case of `CNCc1cn(CCCN2CN(c3ccc(F)cc3)C3(CCN([C@H]4Cc5cccc6cccc4c56)CC3)C2=O)nn1`, the Ki on Mu opioid receptor turned out to be 82.3 nM; at Delta Opioid Receptor, 1510 nM; in assay [1], 0.08 nM.
